Values quoted from earlier work in patent US7794835B2, “Fixing solution, capsule structure, fixing method, fixing device and image forming apparatus” (Ricoh Company, Ltd., priority 2004, dated 2010).

Conditions: acute oral toxicity; cited from earlier work

## dimethylsiloxane
  LD50: 15000 mg/kg
